Earlier results as cited in patent US12138398B2, “Methods and devices for providing a stimulus to a subject to induce gamma oscillations” (Massachusetts Institute of Technology, priority 2015, dated 2024).

Tested on: AD patients
Details: AD subjects; cited from earlier work

bapineuzumab
clinical outcome on cognition: lack of cognitive benefit
